Measurements reported in US8741644B2, “Method for producing mast cells from pluripotent stem cells” (Kyoto University, priority 2009, dated 2014).

Test system: hESC-derived hematopoietic progenitor cells
Assay: Cell proliferation in step 2 suspension culture with various cytokine combinations
Assay type: cell-based, human
Conditions: co-cultured hESC (H1)/AGMS-3 cells in IMDM, 10% FBS, cytokine combinations with or without IL-3, FIG. 9
Description: 5×10^5 cells in the co-culture of hESCs (H1) and AGMS-3 cells (step 1) were replaced in suspension culture consisting IMDM, 10% FBS (F) and various cytokine combinations (step 2). S, 6, 3, V, and P means SCF, IL-6, IL-3, VEGF, and platelet derived growth factor (PDGF), respectively.
To generate mature MCs from hESC-derived hematopoietic progenitor cells, in this step, total co-cultured cells obtained from Step 1 were cultured in non-adhesion 35 mm dishes (Sumilon, surfaces of the plates are resistant to cell adhesion) nurtured by IMDM with 10% FBS and a cocktail of cytokines favoring hematopoietic progenitor cell development (SCF, IL-3, IL-6, FL, TPO). After 7 days of the culture, most of the cells proliferated were hematopoietic cells with a property of myeloid progenitors. The cells expanded to 1.75±0.6×10^6 (n=5) from total co-cultured cells in one 6-well at day 7, which was 29 to 117-fold from initial number of undifferentiated hESCs. The concentration of CD34^÷ cells was 9.1-fold. […] However, after one week in this IL-3-oriented culture, most of the cells shared a phenotype of myeloid progenitors and continuously differentiated to granulocytes and macrophages, but few c-kit^+ mast cells. For this reason, IL-3 was excluded in Step 3.

B1: IL-3: interleukin; hematopoietic factor added to the step 2 culture (protein, UniProt P08700 20-152, looked up)
Interleukin-3: APMTQTTPLKTSWVNCSNMIDEIITHLKQPPLPLLDFNNLNGEDQDILMENNLRRPNLEAFNRAVKSLQNASAIESILKNLLPCLPLATAAPTRHPIHIKDGDWNEFRRKLTFYLKTLENAQAQQTTLSLAIF
cell proliferation: greatly supported cell proliferation
